Results as given in patent publication US20190367620A1.

The chains behind the UniProt entries cited, without tags or fusion partners. Residues count along the entry.
UniProt P11362, 22-376: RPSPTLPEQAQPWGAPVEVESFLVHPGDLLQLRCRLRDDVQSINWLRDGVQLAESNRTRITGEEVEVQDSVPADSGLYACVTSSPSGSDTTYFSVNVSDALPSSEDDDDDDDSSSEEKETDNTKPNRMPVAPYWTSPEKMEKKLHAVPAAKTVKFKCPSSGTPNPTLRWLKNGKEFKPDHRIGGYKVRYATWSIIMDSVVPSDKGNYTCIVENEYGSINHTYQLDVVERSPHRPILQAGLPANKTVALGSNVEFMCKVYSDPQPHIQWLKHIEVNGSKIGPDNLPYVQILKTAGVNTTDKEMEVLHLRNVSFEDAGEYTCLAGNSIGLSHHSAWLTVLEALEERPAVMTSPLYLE

Target: huFGFR1a-IIIc (human) (UniProt P11362)
Test: SPR (Biacore 4000), antibody captured, His-tagged FGFR1 injected; no unit in the table, nM inferred from paragraph 90

B1: mAb #A05 (antibody, V domains shown)
VH: QMQLVQSGAEVKKPGASVKVSCKASGHTFTGYYMHWVRQAPGQGLEWMGWINPNSGGTNYAQKFQGRVTMTRDTSISTAYMELSRLRSDDTAVYYCARDLFWSLSSGWSIHPYYFDYWGQGTLVTVSS
VL: QSALTQPASVSGSPGQSITISCTGTSSDVGSYNLVSWYQQHPGKAPKLMIYGGSKRPSGVPDRFSGSKSDTSASLTISGLQAEDEADYYCCSYTYNGDVFGTGTKVTVL
Kd: 0.2 nM
